In experiment [1] the target is NET (Rattus norvegicus, UniProt Q63380). The experiment is described as follows: In vitro determination of NET reuptake inhibition ([3H]Nixosetine binding). As to conditions: rat brain cortex membranes.
The target of experiment [2] is 5-HT2C receptors (Sus scrofa, UniProt K7GSR7). The experiment is described as follows: In vitro binding affinity for 5-HT2C receptor (3H-mesulergine radioligand binding). The following applies: choroid plexus of the pig. The protocol:
The interaction of the compounds of Formula (I) with 5-HT2A and 5-HT2C receptors was assessed in in vitro radioligand binding experiments. In general, a low concentration of a radioligand with a high binding affinity for the receptor is incubated with a sample of a tissue preparation enriched in a particular receptor (1 to 5 mg tissue) in a buffered medium (0.2 to 5 ml). During the incubation, the radioligands bind to the receptor. When equilibrium of binding is reached, the receptor bound radioactivity is separated from the non-bound radioactivity, and the receptor bound activity is counted. The interaction of the test compounds with the receptors is assessed in competition binding experiments. Various concentrations of the test compound are added to the incubation mixture containing the tissue preparation and the radioligand. Binding of the radioligand will be inhibited by the test compound in proportion to its binding affinity and its concentration. The radioligand used for 5-HT2A binding affinity is ^3H-ketanserin and the tissue used is the frontal cortex of the rat. The radioligand used for 5-HT2c binding affinity is ^3H-mesulergine and the tissue used is the choroid plexus of the pig.

The chains behind the UniProt entries cited, without tags or fusion partners. Where a name states a change or a piece, a line headed by the entry shows the natural chain unless it says otherwise. Residues count along the entry.
UniProt Q63380, 1-617: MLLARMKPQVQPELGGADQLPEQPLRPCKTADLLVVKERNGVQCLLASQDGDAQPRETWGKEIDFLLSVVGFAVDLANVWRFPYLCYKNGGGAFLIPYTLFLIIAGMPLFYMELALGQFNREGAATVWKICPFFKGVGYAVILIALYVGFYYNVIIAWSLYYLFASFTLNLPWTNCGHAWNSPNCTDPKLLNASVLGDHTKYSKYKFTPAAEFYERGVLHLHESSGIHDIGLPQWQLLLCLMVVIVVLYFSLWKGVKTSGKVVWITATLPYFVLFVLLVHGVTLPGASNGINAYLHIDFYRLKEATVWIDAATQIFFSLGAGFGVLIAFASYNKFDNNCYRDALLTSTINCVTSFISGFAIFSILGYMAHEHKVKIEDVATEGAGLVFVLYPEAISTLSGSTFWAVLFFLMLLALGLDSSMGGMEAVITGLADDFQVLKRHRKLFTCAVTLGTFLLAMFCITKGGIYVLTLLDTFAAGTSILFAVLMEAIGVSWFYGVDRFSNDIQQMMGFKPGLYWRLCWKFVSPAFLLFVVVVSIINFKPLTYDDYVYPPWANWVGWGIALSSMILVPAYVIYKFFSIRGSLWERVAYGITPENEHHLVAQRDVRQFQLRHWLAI
UniProt K7GSR7, 1-457: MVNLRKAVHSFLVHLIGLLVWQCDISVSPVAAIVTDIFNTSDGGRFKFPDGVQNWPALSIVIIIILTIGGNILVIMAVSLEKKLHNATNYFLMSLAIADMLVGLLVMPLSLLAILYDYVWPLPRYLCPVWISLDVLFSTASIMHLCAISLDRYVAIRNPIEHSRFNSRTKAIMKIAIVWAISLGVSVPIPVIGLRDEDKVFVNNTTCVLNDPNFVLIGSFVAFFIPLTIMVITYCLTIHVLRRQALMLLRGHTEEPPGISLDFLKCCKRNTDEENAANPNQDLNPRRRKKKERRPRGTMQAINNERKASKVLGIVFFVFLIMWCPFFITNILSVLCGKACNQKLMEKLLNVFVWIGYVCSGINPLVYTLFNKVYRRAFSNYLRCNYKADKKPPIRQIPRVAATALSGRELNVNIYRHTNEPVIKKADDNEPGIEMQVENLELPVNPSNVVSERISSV
UniProt P14842, whole entry: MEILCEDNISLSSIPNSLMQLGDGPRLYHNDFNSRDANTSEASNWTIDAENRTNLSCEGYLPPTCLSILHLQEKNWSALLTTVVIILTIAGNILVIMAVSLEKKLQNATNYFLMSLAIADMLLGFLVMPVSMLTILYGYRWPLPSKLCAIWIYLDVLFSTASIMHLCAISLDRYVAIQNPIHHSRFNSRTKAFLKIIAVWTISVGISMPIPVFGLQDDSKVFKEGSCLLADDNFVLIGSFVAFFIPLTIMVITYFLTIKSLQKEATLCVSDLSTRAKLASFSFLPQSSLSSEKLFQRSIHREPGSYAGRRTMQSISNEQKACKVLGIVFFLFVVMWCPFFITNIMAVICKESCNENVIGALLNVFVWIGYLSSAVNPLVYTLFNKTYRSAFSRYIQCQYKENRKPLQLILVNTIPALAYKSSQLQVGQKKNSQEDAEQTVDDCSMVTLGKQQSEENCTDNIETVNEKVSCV
UniProt P14416, whole entry: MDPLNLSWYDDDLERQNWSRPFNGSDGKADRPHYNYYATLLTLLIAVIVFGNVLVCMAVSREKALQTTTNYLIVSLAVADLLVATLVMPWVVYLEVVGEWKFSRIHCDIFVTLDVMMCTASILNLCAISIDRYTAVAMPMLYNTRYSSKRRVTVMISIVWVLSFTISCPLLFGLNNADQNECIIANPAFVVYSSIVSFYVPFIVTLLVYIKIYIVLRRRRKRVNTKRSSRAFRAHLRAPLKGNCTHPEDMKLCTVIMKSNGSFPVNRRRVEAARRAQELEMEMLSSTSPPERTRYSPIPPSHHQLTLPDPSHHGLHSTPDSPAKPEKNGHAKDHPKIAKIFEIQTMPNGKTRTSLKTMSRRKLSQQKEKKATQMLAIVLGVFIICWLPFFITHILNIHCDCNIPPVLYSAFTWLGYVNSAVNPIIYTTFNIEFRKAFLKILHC

Experiment [3] addresses 5-HT2A receptors (Rattus norvegicus, UniProt P14842). The experiment is described as follows: In vitro binding affinity for 5-HT2A receptor (3H-ketanserin radioligand binding). The following applies: frontal cortex of the rat.
Experiment [4] deals with human Dopamine D2L receptor (Homo sapiens, UniProt P14416). The experiment can be described thus: In vitro binding affinity for human D2L receptor ([3H]Spiperone). The following applies: membranes of human D2L receptor-transfected CHO cells. The protocol:
Frozen membranes of human Dopamine D2L receptor-transfected CHO cells were thawed, briefly homogenised using an Ultra-Turrax T25 homogeniser and diluted in Tris-HCl assay buffer containing NaCl, CaCl2, MgCl2, KCl (50, 120, 2, 1, and 5 mM respectively, adjusted to pH 7.7 with HCl) to an appropriate protein concentration optimised for specific and non-specific binding. Radioligand [^3H]Spiperone (NEN, specific activity ˜70 Ci/mmol) was diluted in assay buffer at a concentration of 2 nmol/L. Prepared radioligand (50 μl), along with 50 μl of either the 10% DMSO control, Butaclamol (10^−6 mol/l final concentration), or compound of interest, was then incubated (30 min, 37° C.) with 400 μl of the prepared membrane solution. Membrane-bound activity was filtered through a Packard Filtermate harvester onto GF/B Unifilterplates and washed with ice-cold Tris-HCl buffer (50 mM; pH 7.7; 6×0.5 ml). Filters were allowed to dry before adding scintillation fluid and counting in a Topcount scintillation counter. Percentage specific bound and competition binding curves were calculated using S-Plus software (Insightful).

A value given as a limit tells only on which side of the number the result lay.

Consider `CN(C)C[C@H]1C[C@@H]2c3ccccc3Sc3sccc3[C@@H]2O1` (relative stereo), for which the “NET-inhibition (pIC50)” value in experiment [1] (tested form: oxalate (1:1)) was determined as 6.3. The “5-HT2C (pIC50)” value in experiment [2] (tested form: oxalate (1:1)) amounted to 6.6. Also, the “5-HT2A (pIC50)” value in experiment [3] (tested form: oxalate (1:1)) amounted to 7.1. The “D2 (pIC50)” value in experiment [4] (tested form: oxalate (1:1)) is less than 6.
With `CN(C)C[C@H]1C[C@@H]2c3ccccc3Sc3sccc3[C@H]2O1` (relative stereo), the “NET-inhibition (pIC50)” value in experiment [1] (tested form: oxalate) was 7.5. Also, the “5-HT2C (pIC50)” value in experiment [2] (tested form: oxalate) came out at 7.6. For the same compound, the “5-HT2A (pIC50)” value in experiment [3] (tested form: oxalate) was determined as 7.0. Also, in experiment [4] (tested form: oxalate), the “D2 (pIC50)” value is on record as 5.9.

These data come from patent US8404729B2, “Heterocyclic tetracyclic tetrahydrofuran derivatives” (Janssen Pharmaceutica, NV, priority 2005, dated 2013).
